Chains of the proteins cited; added tags and fusions are not shown.
UniProt Q15118, whole entry, looked up: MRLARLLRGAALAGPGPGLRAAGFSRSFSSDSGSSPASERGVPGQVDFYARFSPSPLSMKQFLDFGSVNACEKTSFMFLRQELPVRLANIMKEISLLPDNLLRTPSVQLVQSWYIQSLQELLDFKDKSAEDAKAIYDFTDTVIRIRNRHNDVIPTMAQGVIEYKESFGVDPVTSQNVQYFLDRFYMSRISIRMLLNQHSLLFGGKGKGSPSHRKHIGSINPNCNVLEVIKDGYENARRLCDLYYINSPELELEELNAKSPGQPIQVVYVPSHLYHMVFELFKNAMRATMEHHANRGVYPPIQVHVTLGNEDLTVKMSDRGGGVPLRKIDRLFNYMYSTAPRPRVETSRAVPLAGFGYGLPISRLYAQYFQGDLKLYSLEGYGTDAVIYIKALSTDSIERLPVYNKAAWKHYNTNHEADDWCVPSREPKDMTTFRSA
UniProt Q15120, whole entry, looked up: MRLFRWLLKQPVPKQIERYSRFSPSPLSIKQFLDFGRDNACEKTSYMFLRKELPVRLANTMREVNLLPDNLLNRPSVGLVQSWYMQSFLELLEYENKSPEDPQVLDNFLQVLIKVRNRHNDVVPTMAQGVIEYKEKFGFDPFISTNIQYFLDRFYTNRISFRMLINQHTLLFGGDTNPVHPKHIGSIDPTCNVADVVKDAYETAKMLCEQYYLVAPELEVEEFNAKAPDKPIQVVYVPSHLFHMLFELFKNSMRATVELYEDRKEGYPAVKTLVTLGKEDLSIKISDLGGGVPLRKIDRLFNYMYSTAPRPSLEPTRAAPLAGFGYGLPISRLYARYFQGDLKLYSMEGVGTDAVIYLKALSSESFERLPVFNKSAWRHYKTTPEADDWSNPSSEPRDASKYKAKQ

According to ChEMBL document CHEMBL4007440, “Development of the First Generation of Disulfide-Based Subtype-Selective and Potent Covalent Pyruvate Dehydrogenase Kinase 1 (PDK1) Inhibitors” (J Med Chem, 2017):

Key:
[1] = biological target: T1, [Pyruvate dehydrogenase (acetyl-transferring)] kinase isozyme 1, mitochondrial (Homo sapiens, UniProt Q15118); test: Inhibition of full length His6-tagged PDK1 (unknown origin) expressed in Escherichia coli assessed as inactivation rate using full length His6-tagged PDHA1 as substrate up to 45 mins by ELISA
[2] = biological target: T1, [Pyruvate dehydrogenase (acetyl-transferring)] kinase isozyme 1, mitochondrial; test: Ratio of Kinact to Ki for full length His6-tagged PDK1 (unknown origin) expressed in Escherichia coli
[3] = biological target: [Pyruvate dehydrogenase (acetyl-transferring)] kinase isozyme 3, mitochondrial (Homo sapiens, UniProt Q15120)
[4] = biological target: [Pyruvate dehydrogenase (acetyl-transferring)] kinase isozyme 2, mitochondrial (Homo sapiens, UniProt Q15119)

Row | Kinact [1] [×10⁻⁴ /s] | Ratio [2] [×10³ /M/s] | Kinact [3] [×10⁻⁴ /s] | Kinact [4] [×10⁻⁴ /s] | SMILES
1 | 4.95 | 4.06 | – | – | COC[C@H]1COCCN1C(=S)SSC(=S)N1CCOC[C@@H]1COC
2 | 5.47 | 5.14 | 8.58 | 1.56 | S=C(SSC(=S)N1CCCOCC1)N1CCCOCC1
3 | 8.75 | 1.94 | 12.8 | 0.99 | S=C(SSC(=S)N1CCOCC1)N1CCOCC1
4 | 4.43 | 4.17 | 17.6 | 2.07 | COC[C@@H]1COCCN1C(=S)SSC(=S)N1CCOC[C@H]1COC
